This passage reports activity score results from PubChem BioAssay AID602363 (Broad Institute, 2012).

The whole screen tested about 350,000 compounds, of which about 450 (0.13%) were called active. The list comes from a sample in which actives are over-represented; it also holds similar structures and randomly drawn compounds. Unmarked numbers belong to inactive results.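 The calls were made as follows: active = replicate mean at a twofold rise or more (about +100% in these data); inactive = the rest.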

A short description of this test: modulators of yeast start codon fidelity, primary screen, whole organism, S. cerevisiae, single point, plate reader (AID 602363). The note with it: S. cerevisiae UUG-firefly luciferase reporter, luminescence/redox ratio; at 18.7 µM; stronger effect = higher value.
Take `COc1ccc(NC(=O)Nc2cccc3c2O[C@@H](CN(C)Cc2ccncc2)[C@H](C)CN([C@H](C)CO)C3=O)cc1`: the activity score is -5.85%. As for `CC(C)C#Cc1ccc2c(c1)O[C@@H](CN(C)C(=O)Nc1ccccc1)[C@H](C)CN([C@H](C)CO)S2(=O)=O`, the figure is -2.56%; as for `CCC(=O)N(C)C[C@@H]1Oc2ncc(C#CCC3CCCC3)cc2C(=O)N([C@@H](C)CO)C[C@H]1C`, 5.33%; as for `O=C(c1ccncc1)N1C[C@H]2[C@@H](c3ccccc31)[C@H](CO)N2C(=O)c1ccccn1`, -20.1%. As for `O=C(N[C@H]1CC[C@@H](CCNS(=O)(=O)c2ccc(Cl)cc2)O[C@H]1CO)c1cccc(F)c1`, the activity score was 12.6%. Regarding `CC(C)CC#Cc1cnc2c(c1)C(=O)N([C@H](C)CO)C[C@H](C)[C@@H](CN(C)Cc1ccccc1)O2`, the activity score is 16.5%. For `C[C@H](CO)N1C[C@H](C)[C@@H](CN(C)C(=O)C2CCCCC2)Oc2cc(-c3ccccc3)ccc2S1(=O)=O`, the activity score was 9.53%.

For `C[C@H]1CN([C@@H](C)CO)C(=O)c2cc(NC(=O)Cn3cnnn3)ccc2O[C@@H]1CN(C)S(=O)(=O)c1cccs1`, the activity score is -10.2%. Regarding `O=C(O)C[C@@H]1C[C@@H]2c3cc(NC(=O)NC4CCCC4)ccc3O[C@@H]2[C@H](CO)O1`, the activity score was -9.94%. As for `COc1cccc(S(=O)(=O)Nc2ccc3c(c2)[C@H]2C[C@H](CC(=O)O)O[C@H](CO)[C@H]2O3)c1`, the figure is -0.528%. `Cc1noc(C)c1NC(=O)Nc1ccc2c(c1)C(=O)N([C@H](C)CO)C[C@H](C)[C@@H](CN(C)Cc1ccc3c(c1)OCO3)OCCCC[C@@H](C)O2`: the activity score was -5.08%.

For `C[C@@H]1CN([C@@H](C)CO)C(=O)c2cc(C#CC(C)(C)O)cnc2O[C@@H]1CN(C)C(=O)C1CCOCC1`, the activity score was -1.48%. For `CCc1ccc(NC(=O)CN2C(=O)CSC2=O)cc1`, the activity score is -4.72%. For `CC(=O)N1CC(=O)N(CC(=O)Nc2ccc(Br)cc2)C1=S`, the activity score was 120% (active). As for `Cc1cccc(NC(=O)CN2C(=O)CNC2=O)c1`, the figure is -17.5%; as for `CCCNC(=O)N(C)C[C@H]1Oc2ncc(C#CC(C)C)cc2C(=O)N([C@@H](C)CO)C[C@@H]1C`, 11.9%. For the molecule `CO[C@H]1CN(C)C(=O)c2cc(NC(=O)c3cc(C)on3)ccc2OC[C@H](C)N(C(C)=O)C[C@H]1C`, the activity score was 7.59%. Take `O=C(Cc1ccccn1)N[C@H]1CC[C@H](CCNS(=O)(=O)c2cccc(F)c2)O[C@@H]1CO`: the activity score was -14.5%. As to `CC(=O)N1C[C@@H]2[C@H](c3ccccc31)[C@H](CO)N2C(=O)Nc1ccc(F)cc1`, the activity score is 27%.

As to `O=C(C[C@@H]1C=C[C@H](NC(=O)CCN2CCCCC2)[C@H](CO)O1)NCc1ccc(Cl)c(Cl)c1`, the activity score is -10.1%. Turning to `O=C(Nc1ccc(Oc2ccccc2)cc1)c1ccco1`, the activity score is 570% (active). On to `O=C(NNC(=O)c1ccco1)Nc1ccccc1`, for which the activity score was -11.9%. Then `Cc1ccc(NC(=O)c2ccco2)cc1`, with 13.9%. Then `CC(C)NC(=O)N1CCCCN2[C@H](CO)[C@H](c3ccc(C#C[C@H](C)O)cc3)[C@H]2C1`, with 4.66%; and `Cc1noc(C)c1S(=O)(=O)N(C)C[C@@H]1OCCCC[C@H](C)Oc2ccc(NC(=O)Nc3ccc4c(c3)OCO4)cc2C(=O)N([C@H](C)CO)C[C@@H]1C`, with -17.6%. Take `O=C(Nc1ccc(Cl)cc1)N1C[C@@H]2[C@H](c3ccccc31)[C@@H](CO)N2C(=O)c1cccnc1`: the activity score is -17%. In the case of `CC(C)NC(=O)Nc1ccc2c(c1)C(=O)N([C@@H](C)CO)C[C@H](C)[C@@H](CN(C)C(=O)Nc1ccc(F)cc1)OCCCC[C@H](C)O2`, the activity score was -6.2%.

In the case of `C[C@H](CO)N1C[C@H](C)[C@H](CN(C)Cc2ccc3c(c2)OCO3)Oc2c(cccc2N(C)C)C1=O`, the activity score is -9.31%.

Take `COc1ccc(S(=O)(=O)N(C)C[C@H]2OCCCC[C@@H](C)Oc3ccc(NC(=O)CCC(F)(F)F)cc3C(=O)N([C@@H](C)CO)C[C@H]2C)cc1`: the activity score was 1.93%. Turning to `C=CCOC(=O)[C@H]1[C@@H]2C(=O)O[C@@H](c3ccccc3)[C@@H](c3ccccc3)N2[C@@H](c2ccc(OCCOC(=O)[C@H]3C[C@H]4C(=O)NCC(=O)N4[C@H]3c3ccc(O)cc3)cc2)[C@]12C(=O)Nc1ccccc12`, the activity score is -7.32%. As for `COc1ccccc1-c1cnc2c(c1)C(=O)N([C@H](C)CO)C[C@@H](C)[C@@H](CN(C)CC1CCCC1)O2`, the figure is -0.682%; as for `C[C@H](CO)N1C[C@H](C)[C@H](CN(C)C(=O)c2ccccn2)Oc2ncc(-c3ccccc3F)cc2C1=O`, 9.71%. As for `Cc1noc(C)c1NC(=O)N(C)C[C@@H]1Oc2ccc(NS(=O)(=O)c3ccc(Cl)cc3)cc2C(=O)N([C@@H](C)CO)C[C@H]1C`, the figure is 9.56%; as for `C[C@H](CO)N1C[C@H](C)[C@@H](CN(C)Cc2ccc(Cl)c(Cl)c2)Oc2c(NC(=O)C3CCCCC3)cccc2C1=O`, 0.419%. As for `CO[C@H]1CN(C)C(=O)c2cc(NS(C)(=O)=O)ccc2OC[C@H](C)N(C(=O)C2CCCC2)C[C@H]1C`, the figure is -1.38%; as for `C[C@@H]1CN([C@H](C)CO)C(=O)Cc2cc(NS(=O)(=O)c3ccc(Cl)cc3)ccc2O[C@@H]1CN(C)S(=O)(=O)c1ccc(Cl)cc1`, -17.9%; as for `Cc1ccc(S(=O)(=O)N(C)C[C@@H]2Oc3ccc(NS(=O)(=O)c4c(C)noc4C)cc3CC(=O)N([C@H](C)CO)C[C@H]2C)cc1`, 12.2%. `CCCNC(=O)C[C@H]1CC[C@@H]2[C@H](COc3ccc(NC(=O)c4ccc(OC)cc4)cc3C(=O)N2C)O1`: the activity score is 4.65%. On to `C[C@@H](NC(=O)C[C@H]1C[C@H]2c3cc(NC(=O)Nc4ccccc4F)ccc3O[C@H]2[C@@H](CO)O1)c1ccccc1`, for which the activity score was -2.05%. Then `CCCNC(=O)N1C[C@@H](O)COC[C@H]2O[C@@H](CC(=O)NCCCN3CCOCC3)CC[C@@H]21`, with -4.24%.
